Values quoted from earlier work as cited in publication PMC4208696 (Biophysical chemistry, 2014).

Target: full-length CaM
Conditions: read-out: Kd (ITC, apo), ref [46]; cited from earlier work

Question: For `CSCC[C@H](NC(=O)[C@H](CCCNC(=N)N)NC(=O)[C@H](Cc1ccccc1)NC(=O)[C@H](CS)NC(=O)[C@H](C)NC(=O)[C@@H](NC(=O)[C@@H](NC(=O)[C@H](C)NC(=O)[C@H](CCCNC(=N)N)NC(=O)[C@H](CCCNC(=N)N)NC(=O)[C@H](CCCNC(=N)N)NC(=O)[C@H](CCC(N)=O)NC(=O)[C@H](CCCCN)NC(=O)[C@H](CO)NC(=O)[C@H](CC(C)C)NC(=O)[C@H](CC(C)C)NC(=O)[C@H](CCCCN)NC(=O)[C@H](Cc1c[nH]cn1)NC(=O)[C@H](Cc1c[nH]c2ccccc12)NC(=O)[C@@H](NC(=O)[C@H](C)NC(=O)[C@H](CCCCN)NC(=O)[C@H](CCCCN)NC(=O)[C@H](CO)NC(=O)[C@H](CCCCN)NC(C)=O)C(C)C)C(C)C)C(C)C)C(=O)N[C@H](C(=O)N1CCC[C@H]1C(=O)N[C@@H](CC(C)C)C(=O)N[C@@H](Cc1ccc(O)cc1)C(=O)N[C@@H](CC(N)=O)C(N)=O)[C@@H](C)O` [hRyR1(3614–3643)p], which Kd is on record?
Answer: 46.5 µM
